Chains of the proteins cited; added tags and fusions are not shown. Residues count along the entry.
UniProt P05107, 23-700 limits assumed: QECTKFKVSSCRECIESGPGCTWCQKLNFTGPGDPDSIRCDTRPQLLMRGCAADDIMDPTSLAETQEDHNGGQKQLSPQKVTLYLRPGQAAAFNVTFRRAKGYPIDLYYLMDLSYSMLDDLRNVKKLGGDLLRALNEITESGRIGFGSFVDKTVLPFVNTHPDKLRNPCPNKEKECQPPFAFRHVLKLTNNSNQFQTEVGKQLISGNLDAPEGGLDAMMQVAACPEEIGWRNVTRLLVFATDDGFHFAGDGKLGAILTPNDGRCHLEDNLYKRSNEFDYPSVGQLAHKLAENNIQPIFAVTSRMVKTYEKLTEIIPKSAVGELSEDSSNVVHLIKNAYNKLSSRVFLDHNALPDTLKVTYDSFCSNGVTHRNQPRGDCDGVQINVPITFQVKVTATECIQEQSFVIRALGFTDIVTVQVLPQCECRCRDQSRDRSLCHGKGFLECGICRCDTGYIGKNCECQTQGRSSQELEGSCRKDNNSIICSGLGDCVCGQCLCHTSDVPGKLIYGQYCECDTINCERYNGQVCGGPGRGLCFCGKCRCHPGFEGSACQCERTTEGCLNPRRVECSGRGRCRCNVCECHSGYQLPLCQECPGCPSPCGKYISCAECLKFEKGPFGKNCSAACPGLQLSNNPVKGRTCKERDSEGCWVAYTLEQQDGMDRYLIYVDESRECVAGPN
UniProt P20701, 26-1090 limits assumed: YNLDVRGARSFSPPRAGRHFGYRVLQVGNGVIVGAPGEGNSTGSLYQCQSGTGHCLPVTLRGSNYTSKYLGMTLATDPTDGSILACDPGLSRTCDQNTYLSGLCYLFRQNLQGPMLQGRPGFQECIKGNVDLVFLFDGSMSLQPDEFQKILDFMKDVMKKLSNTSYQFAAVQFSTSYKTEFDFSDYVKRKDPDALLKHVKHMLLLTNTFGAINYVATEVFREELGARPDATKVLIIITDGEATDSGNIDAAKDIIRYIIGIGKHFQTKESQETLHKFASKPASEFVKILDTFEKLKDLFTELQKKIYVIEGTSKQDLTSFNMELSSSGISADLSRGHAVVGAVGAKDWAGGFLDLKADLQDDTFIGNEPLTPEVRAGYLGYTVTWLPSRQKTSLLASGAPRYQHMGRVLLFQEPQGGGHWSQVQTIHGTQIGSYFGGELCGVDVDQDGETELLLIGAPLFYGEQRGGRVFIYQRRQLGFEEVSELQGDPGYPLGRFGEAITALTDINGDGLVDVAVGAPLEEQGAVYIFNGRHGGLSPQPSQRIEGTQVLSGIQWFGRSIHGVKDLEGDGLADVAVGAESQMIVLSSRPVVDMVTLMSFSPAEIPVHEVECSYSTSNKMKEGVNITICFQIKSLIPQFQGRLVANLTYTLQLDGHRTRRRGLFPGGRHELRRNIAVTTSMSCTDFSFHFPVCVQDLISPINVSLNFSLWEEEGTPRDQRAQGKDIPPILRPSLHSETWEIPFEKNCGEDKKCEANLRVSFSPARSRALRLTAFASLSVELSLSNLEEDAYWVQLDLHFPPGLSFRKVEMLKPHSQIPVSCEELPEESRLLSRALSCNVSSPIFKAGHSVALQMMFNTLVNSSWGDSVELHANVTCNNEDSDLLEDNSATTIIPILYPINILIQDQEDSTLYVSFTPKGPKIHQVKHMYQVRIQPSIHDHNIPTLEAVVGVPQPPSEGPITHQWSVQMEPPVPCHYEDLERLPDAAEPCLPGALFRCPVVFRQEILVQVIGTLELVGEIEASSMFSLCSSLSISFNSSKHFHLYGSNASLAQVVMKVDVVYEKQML

In US20130197059A1, “INTEGRIN ANTAGONIST CONJUGATES FOR TARGETED DELIVERY TO CELLS EXPRESSING LFA-1” (Hoffmann-La Roche Inc., priority 2012, published 2013):

Key:
Jurkat Cells/VCAM-1 = Jurkat Cells/VCAM-1 Adhesion Assay; assay type: cell-based
sLFA-1/ICAM-1 = sLFA-1/ICAM-1 (Homo sapiens, UniProt P05107+P20701); assay: sLFA-1/ICAM-1 ELISA (LFA1 Adhesion Assay); conditions: read-out: LFA1 Adhesion Assay (IC50 nM); Table 5
[1] = read-out: Jurkat Cells/VCAM-1 Adhesion Assay (IC50 nM), Table 5

| Structure (SMILES) | IC50 (Jurkat Cells/VCAM-1; [1]) [nM] | IC50 (Jurkat Cells/VCAM-1; read-out: Jurkat Cells/VCAM-1 Adhesion Assay, Table 4) [nM] | IC50 (sLFA-1/ICAM-1) [nM] |
| --- | --- | --- | --- |
| O=C(CCN1C(=O)CC(SCCC(=O)Nc2ccc(-c3c4ccc(=O)cc-4oc4cc(O)ccc34)c(C(=O)O)c2)C1=O)NCCOCCOCCOCCOCCOCCOCCOCCOCCC(=O)NCc1ccccc1 (stereo not shown) | > 200 | > 200 | > 10000 |
| Cc1nc(NCCCc2cccc(O)c2)nc(C)c1C(=O)N[C@@H](CNC(=O)CCOCCOCCOCCOCCOCCOCCOCCOCCNC(=O)CCN1C(=O)CC(SCCC(=O)Nc2ccc(-c3c4ccc(=O)cc-4oc4cc(O)ccc34)c(C(=O)O)c2)C1=O)C(=O)O (stereo partly shown) | 160 | – | 160 |
| Cc1nc(NCCCc2cccc(O)c2)nc(C)c1C(=O)N[C@@H](CNC(=O)CCOCCOCCOCCOCCOCCOCCOCCOCCOCCOCCOCCOCCNC(=O)CCN1C(=O)C=CC1=O)C(=O)O | – | – | 502 |
| Cc1nc(NCCCc2cccc(O)c2)nc(C)c1C(=O)N[C@@H](CNC(=O)CCOCCOCCOCCOCCNC(=O)CCN1C(=O)C=CC1=O)C(=O)O | – | – | 134 |

Where two headings read alike, the source gives them in different places.
